Ab-91 heavy chain CDR variants: yeast mating affinities

Binding partner: SARS-CoV-2 spike HR2 peptide, sequence PDVDLGDISGINAS.

Ab-91 is the parent antibody, in scFv form: VL, then a 15-residue (Gly4Ser)3 linker, then VH. The light chain is unchanged in all variants.
VL: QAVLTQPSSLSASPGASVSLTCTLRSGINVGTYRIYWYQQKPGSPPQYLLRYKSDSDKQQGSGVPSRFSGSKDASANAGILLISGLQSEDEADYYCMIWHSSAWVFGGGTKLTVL
VH: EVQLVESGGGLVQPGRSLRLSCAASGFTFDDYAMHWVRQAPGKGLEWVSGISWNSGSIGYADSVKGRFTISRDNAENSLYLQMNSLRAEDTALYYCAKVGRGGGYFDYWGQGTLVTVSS

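The starting antibody came from a phage panning campaign against this peptide. In library AAYL51, one, two or three CDR residues were substituted; doubles and triples were drawn at random. AlphaSeq pools MATa yeast showing the antibodies with MATalpha yeast showing the peptide. The frequency of each diploid, read from paired DNA barcodes, reflects how well the two displayed proteins bind. The ratio of observed to expected reads was calibrated, replicate by replicate, on BCL2-family standards whose Kd was known from biolayer interferometry. Mating was done three times.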

Each variant's VH is given in full. Values are log10 of the apparent Kd in nM; lower means stronger binding. An entry "nd" has no value in the source: the pair was not observed among the diploids in that replicate. This suggests poor binding but is not conclusive. Empty control strains, which show no peptide, gave a signal in 21% of pairings with library AAYL51; the median was 4.54 and 95% of these signals were weaker than 3.26. No background was subtracted. For each scFv, signals with the empty controls are counted beside the result.

The variant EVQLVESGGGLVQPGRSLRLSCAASGFTFDDYAMHWVRQAPGKGLEWVSGISWNSGSIGYADCVKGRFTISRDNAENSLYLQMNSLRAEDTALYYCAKVGRCGGYFDYWGQGTLVTVSS showed 3.79, 2.73, nd (controls 0 of 9).
The variant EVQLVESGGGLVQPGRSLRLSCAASGFTFDDYAINWVRQAPGKGLEWVSGISNNSGSIGYADSVKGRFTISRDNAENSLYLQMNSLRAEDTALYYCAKVGRGGGYFDYWGQGTLVTVSS showed nd, nd, nd (controls 0 of 9).
The variant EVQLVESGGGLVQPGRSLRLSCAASGFTFDDYAMHWVRQAPGKGLEWVSGISWNSGEIGYADSVKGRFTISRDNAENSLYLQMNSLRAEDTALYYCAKVQRGGSYFDYWGQGTLVTVSS showed nd, 5.45, nd (controls 3 of 9).
The variant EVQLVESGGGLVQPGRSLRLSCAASGFTFDDYAMHWVRQAPGKGLEWVSGWSWNSGSMGYADSIKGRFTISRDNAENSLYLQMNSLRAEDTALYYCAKVGRGGGYFDYWGQGTLVTVSS showed nd, 5.35, nd (controls 3 of 9).
The variant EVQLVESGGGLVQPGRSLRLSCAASGFGFDDYKMHWVRQAPGKGLEWVSGISWNSGSIGYADSVKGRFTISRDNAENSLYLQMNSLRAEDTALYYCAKVGDGGGYFDYWGQGTLVTVSS showed nd, 2.88, nd (controls 1 of 9).
The variant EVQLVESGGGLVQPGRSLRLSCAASYFTFDEYAMHWVRQAPGKGLEWVSGISWNSGSTGYADSVKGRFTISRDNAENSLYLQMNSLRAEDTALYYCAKVGRGGGYFDYWGQGTLVTVSS showed nd, nd, 1.18 (controls 1 of 9).
The variant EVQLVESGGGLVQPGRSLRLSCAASGFTFDNYAMHWVRQAPGKGLEWVSGISVNSGSIGYCDSVKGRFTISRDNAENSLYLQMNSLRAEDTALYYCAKVGRGGGYFDYWGQGTLVTVSS showed 1.33, 1.32, 0.67 (controls 3 of 9).
The variant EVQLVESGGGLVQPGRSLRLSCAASGFTFIDMAMHWVRQAPGKGLEWVSGISWNSGSIGYADSVKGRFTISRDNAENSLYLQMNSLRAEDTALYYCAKVGNGGGYFDYWGQGTLVTVSS showed 3.18, nd, nd (controls 1 of 9).
The variant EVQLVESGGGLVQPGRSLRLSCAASGFCFDDYAMHWVRQAPGKGLEWVSGISWNSGSDGYADSVKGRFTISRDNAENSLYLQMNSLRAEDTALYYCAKVMRGGGYFDYWGQGTLVTVSS showed nd, nd, nd (controls 1 of 9).
The variant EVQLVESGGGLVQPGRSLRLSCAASGFTFDDYAMHWVRQAPGKGLEWVSGISWNSGSIGYADSVKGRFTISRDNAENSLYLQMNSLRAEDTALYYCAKVDRGGGGFDYWGQGTLVTVSS showed 4.91, 6.61, 3.53 (controls 4 of 9).
The variant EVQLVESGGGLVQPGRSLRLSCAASGFTFDDYAMHWVRQAPGKGLEWVSGISWNSGSIGQVDSVKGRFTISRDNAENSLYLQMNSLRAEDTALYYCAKVGRGGQYFDYWGQGTLVTVSS showed nd, nd, nd (controls 0 of 9).
The variant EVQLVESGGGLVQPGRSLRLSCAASGFTFDDYAMHWVRQAPGKGLEWVSGISWNSGSIGYADFCQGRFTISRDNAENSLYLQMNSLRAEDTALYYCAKVGRGGGYFDYWGQGTLVTVSS showed 0.81, 1.53, 0.78 (controls 0 of 9).
The variant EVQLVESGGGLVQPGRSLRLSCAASGFTQDDYAMHWVRQAPGKGLEWVSGISWNFGSIGAADSVKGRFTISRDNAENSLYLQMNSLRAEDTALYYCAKVGRGGGYFDYWGQGTLVTVSS showed nd, nd, nd (controls 0 of 9).
The variant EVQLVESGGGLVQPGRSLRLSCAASGFTFDDYAMHWVRQAPGKGLEWVSGISWNAGSIGYADLVKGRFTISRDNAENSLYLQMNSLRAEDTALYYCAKVGRGGGYFDYWGQGTLVTVSS showed 3.41, 3.53, 3.47 (controls 9 of 9).
The variant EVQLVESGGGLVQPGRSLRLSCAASGVTFDDYAMHWVRQAPGKGLEWVSGISWNSGSIGYADYVKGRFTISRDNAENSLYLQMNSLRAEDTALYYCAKVGRGGGYFDLWGQGTLVTVSS showed nd, nd, nd (controls 0 of 9).
The variant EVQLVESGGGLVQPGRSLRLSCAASGFTFDDYAMHWVRQAPGKGLEWVSGISWNSGSIGYADSVKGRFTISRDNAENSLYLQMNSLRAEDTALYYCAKVGRDGGYAMYWGQGTLVTVSS showed nd, nd, nd (controls 0 of 9).
The variant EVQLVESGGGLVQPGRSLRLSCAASGFTFDDWAMHWVRQAPGKGLEWVSGISWNSGSFGYADSVKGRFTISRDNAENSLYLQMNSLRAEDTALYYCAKVGRGGGYPDYWGQGTLVTVSS showed nd, nd, nd (controls 1 of 9).

The first 2 variants above that were never detected:

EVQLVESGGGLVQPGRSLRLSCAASGFTFDDYAINWVRQAPGKGLEWVSGISNNSGSIGYADSVKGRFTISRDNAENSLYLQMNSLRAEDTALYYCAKVGRGGGYFDYWGQGTLVTVSS: nd, nd, nd (controls 0 of 9).
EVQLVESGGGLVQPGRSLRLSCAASGFCFDDYAMHWVRQAPGKGLEWVSGISWNSGSDGYADSVKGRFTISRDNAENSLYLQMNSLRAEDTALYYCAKVMRGGGYFDYWGQGTLVTVSS: nd, nd, nd (controls 1 of 9).

From the AlphaSeq antibody data of Engelhart et al. 2022 (doi:10.1038/s41597-022-01779-4), copy in the FLAb collection.